Assay [1] has as its target hα2C receptor (Homo sapiens, UniProt P18825). Nature of the assay: Radioligand binding experiment for hα2C receptor ([3H]-raulwolscine, CHO cell membranes). Particulars: [3H]-raulwolscine 1 nM, membranes of CHO cells transfected with human α2C receptor. The protocol: (§1) The interaction of the compounds according to Formula (I) with hα2-receptors and h5-HT-transporters was assessed in in vitro radioligand binding experiments. In general, a low concentration of a radioligand with a high binding affinity for a particular receptor or transporter is incubated with a sample of a tissue preparation enriched in a particular receptor or transporter or with a preparation of cells expressing cloned human receptors in a buffered medium. During the incubation, the radioligand binds to the receptor or transporter. When equilibrium of binding is reached, the receptor bound radioactivity is separated from the non-bound radioactivity, and the receptor- or transporter-bound activity is counted. The interaction of the test compounds with the receptor is assessed in competition binding experiments. […]
(§2) Membranes were thawed and re-homogenized in incubation buffer (glycylglycine 25 mM, pH 8.0). […] Filter-bound radioactivity was determined by scintillation counting in a Topcount (Packard, Meriden, Conn.) and results were expressed as counts per minute (cpm). Non-specific binding was determined in the presence of 1 μM oxymetazoline for hα2A- and hα2B receptors and 1 μM spiroxatrine for hα2C receptors.
(§3) Data from assays in the presence of compound were calculated as a percentage of total binding measured in the absence of test compound. […]

The chains behind the UniProt entries cited, without tags or fusion partners.
UniProt P18825, whole entry: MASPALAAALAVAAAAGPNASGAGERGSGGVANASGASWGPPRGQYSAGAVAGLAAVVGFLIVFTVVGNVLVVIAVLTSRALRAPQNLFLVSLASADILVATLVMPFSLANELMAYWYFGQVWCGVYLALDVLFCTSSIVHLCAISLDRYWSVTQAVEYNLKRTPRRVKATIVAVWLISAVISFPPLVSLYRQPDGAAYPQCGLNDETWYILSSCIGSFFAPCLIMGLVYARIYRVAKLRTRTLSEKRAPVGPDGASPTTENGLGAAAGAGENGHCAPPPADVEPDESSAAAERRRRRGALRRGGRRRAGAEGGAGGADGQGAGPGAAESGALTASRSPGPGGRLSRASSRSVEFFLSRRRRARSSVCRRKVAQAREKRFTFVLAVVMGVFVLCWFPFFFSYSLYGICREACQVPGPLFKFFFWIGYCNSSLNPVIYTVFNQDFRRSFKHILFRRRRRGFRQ
UniProt P08913, whole entry: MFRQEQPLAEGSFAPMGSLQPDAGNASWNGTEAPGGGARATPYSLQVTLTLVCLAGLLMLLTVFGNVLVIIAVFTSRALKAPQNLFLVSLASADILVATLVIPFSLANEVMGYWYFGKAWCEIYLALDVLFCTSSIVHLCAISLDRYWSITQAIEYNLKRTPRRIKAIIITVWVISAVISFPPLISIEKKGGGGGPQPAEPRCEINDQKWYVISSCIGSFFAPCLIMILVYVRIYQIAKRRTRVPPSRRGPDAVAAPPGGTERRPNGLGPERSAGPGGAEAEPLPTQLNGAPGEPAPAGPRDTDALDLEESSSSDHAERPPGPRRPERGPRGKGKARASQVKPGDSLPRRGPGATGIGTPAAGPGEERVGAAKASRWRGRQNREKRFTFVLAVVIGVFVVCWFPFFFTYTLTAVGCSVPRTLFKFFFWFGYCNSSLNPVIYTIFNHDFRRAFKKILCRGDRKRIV
UniProt P18089, whole entry: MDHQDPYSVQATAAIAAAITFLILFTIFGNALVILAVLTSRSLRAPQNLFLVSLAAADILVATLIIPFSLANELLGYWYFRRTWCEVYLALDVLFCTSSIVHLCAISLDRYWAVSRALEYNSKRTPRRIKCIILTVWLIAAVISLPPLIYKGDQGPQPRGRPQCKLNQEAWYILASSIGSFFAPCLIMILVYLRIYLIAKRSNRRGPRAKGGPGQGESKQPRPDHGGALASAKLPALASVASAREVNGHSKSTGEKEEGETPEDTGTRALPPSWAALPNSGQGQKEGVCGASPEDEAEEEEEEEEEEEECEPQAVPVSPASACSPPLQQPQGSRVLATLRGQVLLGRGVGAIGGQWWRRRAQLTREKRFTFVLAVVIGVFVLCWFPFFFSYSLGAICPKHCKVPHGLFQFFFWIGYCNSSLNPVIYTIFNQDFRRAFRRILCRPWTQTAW
UniProt P31645, whole entry: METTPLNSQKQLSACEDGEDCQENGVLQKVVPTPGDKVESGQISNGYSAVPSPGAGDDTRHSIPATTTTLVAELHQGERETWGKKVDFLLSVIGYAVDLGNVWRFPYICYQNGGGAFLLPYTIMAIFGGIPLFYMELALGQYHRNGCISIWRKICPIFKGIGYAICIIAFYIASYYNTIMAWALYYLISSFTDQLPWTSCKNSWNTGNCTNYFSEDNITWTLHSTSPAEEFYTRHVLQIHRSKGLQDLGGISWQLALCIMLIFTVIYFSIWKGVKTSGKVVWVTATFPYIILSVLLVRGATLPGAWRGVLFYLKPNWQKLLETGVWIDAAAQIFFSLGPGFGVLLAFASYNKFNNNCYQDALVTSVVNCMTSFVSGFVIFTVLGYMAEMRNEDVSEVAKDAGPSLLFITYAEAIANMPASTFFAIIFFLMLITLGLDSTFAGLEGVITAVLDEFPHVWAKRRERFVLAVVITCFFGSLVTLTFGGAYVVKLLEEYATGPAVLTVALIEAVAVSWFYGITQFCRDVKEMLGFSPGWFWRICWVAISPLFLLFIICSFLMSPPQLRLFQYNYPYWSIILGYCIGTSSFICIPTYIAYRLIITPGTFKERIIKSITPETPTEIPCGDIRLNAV

The target in assay [2] is hα2A receptor (Homo sapiens, UniProt P08913). Nature of the assay: Radioligand binding experiment for hα2A receptor ([3H]-raulwolscine, CHO cell membranes). Particulars: [3H]-raulwolscine 1 nM, membranes of CHO cells transfected with human α2A receptor. The protocol: as §1, §2, §3
In assay [3] the target is hα2B receptor (Homo sapiens, UniProt P18089). Nature of the assay: Radioligand binding experiment for hα2B receptor ([3H]-raulwolscine, CHO cell membranes). Particulars: [3H]-raulwolscine 1 nM, membranes of CHO cells transfected with human α2B receptor. On the procedure: as §1, §2, §3
Assay [4] deals with h5-HT transporter (Homo sapiens, UniProt P31645). Nature of the assay: Radioligand binding experiment for 5-HT transporter ([3H]paroxetine, human platelet membranes). Particulars: [3H]paroxetine 0.5 nM. The protocol: as §1
Human platelet membranes (Oceanix Biosciences Corporation, Hanover, Md., USA) were thawed, diluted in buffer (Tris-HCl 50 mM, 120 mM NaCl and 5 mM KCl) and quickly (max 3 s) homogenised with an Ultraturrax homogenizer. […] Filters were rinsed extensively with ice-cold buffer and radioactivity on the filters was counted in a Topcount liquid scintillation counter (Packard, Meriden, Conn.). Data were expressed as cpm. […]
as §3

Regarding `COc1cc2c(cc1CC1CC1)OCC1C2=NOC1CN1CCN(CC(C)=Cc2ccc(F)cc2)CC1` (stereo not shown), in assay [1], the “pIC50 hα2C” value is given as 8.2. Also, in assay [2], the “pIC50 hα2A” value is 7.8. Further, in assay [3], the “pIC50 hα2B” value was 8.1. Moreover, the “pIC50 h5HTT” value in assay [4] was 7.9.
